In patent US10894038B2, “Indolizine derivatives, composition and methods of use” (Shanghai Fochon Pharmaceutical Co., Ltd., priority 2015, dated 2021) one finds IC50 data, which are given here for 1 compound.

By UniProt entry, the sequences of proteins in these tests, tags left out.
UniProt Q96S37, whole entry: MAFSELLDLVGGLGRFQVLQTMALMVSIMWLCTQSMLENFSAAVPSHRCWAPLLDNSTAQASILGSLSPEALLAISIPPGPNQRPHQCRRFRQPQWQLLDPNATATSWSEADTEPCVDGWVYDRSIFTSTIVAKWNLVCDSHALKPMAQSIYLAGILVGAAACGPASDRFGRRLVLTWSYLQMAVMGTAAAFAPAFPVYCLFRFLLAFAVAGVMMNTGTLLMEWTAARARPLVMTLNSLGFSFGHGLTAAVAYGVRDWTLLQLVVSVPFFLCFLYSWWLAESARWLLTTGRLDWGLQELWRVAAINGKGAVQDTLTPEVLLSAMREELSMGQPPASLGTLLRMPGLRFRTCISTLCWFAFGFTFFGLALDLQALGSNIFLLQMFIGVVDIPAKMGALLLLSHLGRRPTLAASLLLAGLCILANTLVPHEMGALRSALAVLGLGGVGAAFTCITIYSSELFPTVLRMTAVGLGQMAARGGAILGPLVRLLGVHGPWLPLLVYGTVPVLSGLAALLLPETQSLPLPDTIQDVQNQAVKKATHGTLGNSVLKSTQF

The test deals with URAT1 (Homo sapiens (Human), UniProt Q96S37). As to the kind of experiment: URAT1 in vitro inhibition activity, Method B (14C-uric acid uptake in HEK293-URAT1 cells). The note with it: 5.0 μmol/L 14C-uric acid, 2 min uptake. As for the experimental part: HEK293-URAT1 cell Lines were donated by Japan Fuji Biomedical Research Institute. Negative control cell of HEK293 (MOCK cells) which was transfected with pcDNA3.1 empty vector. HEK293-URAT1 cell lines and MOCK cell lines were cultured in complete growth medium consisting of DMEM supplemented with 10% FBS, penicillin and streptomycin.
Preparation of working solution: Each stock solutions was diluted to different concentrations (6, 20, 60, 200 and 600 μmol/L) with DMSO as 200× working solution, which was then diluted to 2×compound working solution with HBSS (Cl^− free) buffer. […]
HER293-URAT1 and MOCK cells were seeded onto 24-well plates at the density of 1.5×10^6 cells per well. […] 400 μL NaOH (0.1 mmol/L) was added to lyse the cells and the cell lysate was collected to scintillation vials, and 3 ml scintillant (Aquasol-2, PerkinElmer) was added and after mixing completely, the radioactivity was counted by Tri-Carb 2910TR liquid scintillation counter. […] Inhibition % data were calculated using the formula: Inhibition=[100×(U−U0)/(Uc−U0)]%, and analyzed using Prism5 software. […]
Uc: Average of signals of radiolabeled substrate. The half inhibition concentration of the tested compounds to URAT1 were analyzed using Prism 5 software.

The compound `N#Cc1ccc(-c2cnccc2SC2(C(=O)O)CCC2)n2ccc(Cl)c12` yielded an IC50 of 34 nM.

By IC50 is commonly meant the point on the concentration scale where inhibition reaches its midpoint.
